Laboratory results: patent publication US20090023646A1, “GHRH analogues” (Centre Hospitalier de L'Universite de Montreal (CHUM), priority 2002, published 2009)

Experiments:
human GHRH receptor = biological target: T1, human GHRH receptor (Homo sapiens, UniProt Q02643); test: Competitive 125I-GHRH binding assay in BHK cell membrane preparations expressing the human GHRH receptor; conditions: Table 7; mean±SEM of 3 experiments (analogue) or 2 experiments (hGHRH(1-44)NH2) in triplicate
T1 construct: expressed in transfected cells; host or cells: BHK (baby hamster kidney) 570 cells
T1 sequence (Q02643 23-423): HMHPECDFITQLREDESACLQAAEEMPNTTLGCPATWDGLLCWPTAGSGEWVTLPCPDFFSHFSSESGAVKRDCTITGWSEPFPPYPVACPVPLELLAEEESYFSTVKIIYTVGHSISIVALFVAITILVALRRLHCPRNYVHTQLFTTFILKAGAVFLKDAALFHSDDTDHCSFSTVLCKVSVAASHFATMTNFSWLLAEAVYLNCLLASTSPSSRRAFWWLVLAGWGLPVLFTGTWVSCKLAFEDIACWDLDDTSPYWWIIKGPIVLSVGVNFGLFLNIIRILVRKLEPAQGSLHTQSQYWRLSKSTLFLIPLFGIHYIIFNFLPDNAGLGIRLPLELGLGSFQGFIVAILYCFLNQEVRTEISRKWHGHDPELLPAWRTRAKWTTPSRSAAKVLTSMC
Method: ^125I-GHRH binding assay was performed as previously described (Boulanger L, et al. (1999) Neuroendocrinology 70: 117-127), using [^125I-Tyr^10]hGHRH(1-44)NH2 as radioligand. Competition experiments were done in BHK (baby hamster kidney) 570 cell membrane preparations (25 μg of protein/assay tube) with increasing concentrations (0-1000 nM) of human(h)GHRH(1-29)NH2, hGHRH(1-44)NH2 or GHRH analogues, in a total volume of 300 μl 50 mM Tris-acetate buffer (pH 7.4), containing 5 mM MgCl2, 5 mM EDTA and 0.42% BSA. Non specific binding was determined in presence of 1 μM hGHRH(1-29)NH2. Incubation was carried out at equilibrium (23° C., 60 min) and stopped by centrifugation (12,000 g, 5 min, at 4° C.). The radioactivity content in pellets was determined by gamma counting. The affinity of hGHRH(1-29) NH2 was tested in each experiment to assess the validity of the assay and determine the relative affinity of the analogues. The Ligand computerized program was used to analyze competition curves of GHRH analogues reported in Tables 2 and 3 and to determine their IC50 (Gaudreau P. et al. (1992) J Med Chem, 35: 1864-1869).
Values represent the mean±SEM of 3 experiments performed in triplicate for the analogues and the mean±SEM of 2 experiments performed in triplicate for hGHRH(1-44) NH2. […]

[1] = In vitro proteolysis assay in human plasma

## hGHRH(1-44)NH2
Human GHRH receptor
  IC50: 5.2 ± 3.4 pM
[1]; incubation time 0 min
  Mean residual amount: 100%
[1]; incubation time 180 min
  Mean residual amount: 31%
[1]; incubation time 420 min
  Mean residual amount: 3%
